Measured values from US8309322B2, “Diterpene modulator of macrophage phagosomal maturation” (priority 2009, dated 2012).

Amino acid sequences for entries named in this document (tags omitted). A change or cut given only in a name is not applied to a line headed by its entry.
UniProt P9WJ61: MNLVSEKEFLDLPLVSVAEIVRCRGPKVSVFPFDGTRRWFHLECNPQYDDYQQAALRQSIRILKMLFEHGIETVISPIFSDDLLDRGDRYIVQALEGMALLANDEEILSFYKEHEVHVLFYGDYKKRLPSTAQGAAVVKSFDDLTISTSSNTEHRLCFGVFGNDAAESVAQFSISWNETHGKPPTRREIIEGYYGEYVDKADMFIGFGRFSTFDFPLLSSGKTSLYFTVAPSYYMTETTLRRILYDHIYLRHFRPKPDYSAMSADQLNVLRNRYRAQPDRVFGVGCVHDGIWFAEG

Target: MtEDS (Mycobacterium tuberculosis, UniProt P9WJ61)
Conditions: read-out: apparent KM for HPP

Work on C/C(=C\COP(=O)(O)OP(=O)(O)O)CC[C@@]1(C)[C@@H]2CCCC(C)(C)C2=CC[C@@H]1C [HPP, halimadienyl diphosphate] yielded a Km of 12 µM.
